Measured values taken from patent US20060110401A1, “Mixture of peptides from c and ns3 proteins of the hepatitis c virus and applications thereof” (priority 2002, published 2006).

The chains behind the UniProt entries cited, without tags or fusion partners. Residues count along the entry.
UniProt P20036, 29-222, chain 1 of 2: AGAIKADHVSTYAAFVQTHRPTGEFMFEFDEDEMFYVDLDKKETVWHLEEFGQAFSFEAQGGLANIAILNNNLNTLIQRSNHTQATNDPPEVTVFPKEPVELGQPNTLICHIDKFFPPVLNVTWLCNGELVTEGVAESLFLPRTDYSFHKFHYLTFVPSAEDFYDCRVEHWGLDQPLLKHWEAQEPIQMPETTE

Key:
[1] = target: HLA-DP402 (DPB1*0402) (human) (UniProt P20036); test: competition binding
[2] = target: HLA-DP401 (DPB1*0401) (human) (UniProt P20036); test: competition binding
DR13 (human) = DR13 (human) (UniProt P01903); test: competition
DR15 (human) = DR15 (human) (UniProt P01903); test: competition

| Substance | IC50 [1] [µM] | IC50 [2] [µM] | IC50 (DR13 (human)) [µM] | IC50 (DR15 (human)) [µM] |
| --- | --- | --- | --- | --- |
| 5C 127-149 | 5.43 | – | – | – |
| 14N 1149-1172 | > 100 | > 100 | – | – |
| 4C104-133 | – | – | > 100 | 1.25 |
